The experiment concerns the target Mouse histone deacetylase. Format: biochemical. As to conditions: enzyme from FM3A cells; [3H]acetyl histone; 37° C. 10 minutes. The method, then:
In an enzyme system using a radio-labelled acetylated histone as a substrate, histone deacetylase enzyme inhibiting activity was evaluated. The basic conditions were in accordance with the method of Yoshida et al. (J. Biol. Chem., 265, 17174-17179, 1990).
Mouse histone deacetylase to be used was partially purified from FM3A cells. Cells were suspended in HDA buffer (15 mM potassium phosphate, 5% glycerol, 0.2 mM EDTA, pH 7.5), homogenized and centrifuged (35000×g, 10 min) to collect the nuclei which in turn were homogenized in the same buffer containing 1 M (NH4)2SO4. After ultrasonic disruption and centrifugation, the concentration of (NH4)2SO4 in the supernatant was increased to 3.5 M to precipitate deacetylase enzyme proteins. This precipitate was redissolved in HDA buffer, dialyzed against HDA buffer, applied to DEAE-cellulose column and eluted in NaCl gradient. Active fractions were used as a histone deacetylase enzyme solution.
As a substrate, [^3H]acetyl histone was used. […]
An assay was performed by adding a compound to be tested at a given concentration while using a no-addition control group, and by incubating the substrate solution and the enzyme solution at 37° C. for 10 minutes (reaction volume, 100 μl). The enzyme reaction was stopped by adding 10 μl of concentrated hydrochloric acid and the excised [^3H]acetate was extracted with ethyl acetate for radioactivity measurement. […]

Each structure is given as a SMILES string.

Usually IC50 stands for the point on the concentration scale where inhibition reaches its midpoint.

With `CC(/C=C/C(=O)NO)=C\[C@@H](C)C(=O)c1ccc(N(C)C)cc1` [Trichostatin A, trichostatin A, reference compound], the IC50 came out at 1.44 nM. That is a single-digit nanomolar value.

The values are drawn from patent publication US6399568B1, “Cyclic tetrapeptide derivatives and medicinal use thereof” (Japan Energy Corporation, priority 1997, dated 2002).
